Results on one substance are retold here after paper PMC4573928 (Cancer chemotherapy and pharmacology, 2015).

For this data set the following is noted: cynomolgus monkey, in vivo, iv, 30 mg/kg.

3, 4, 5, 6-tetrahydrouridine [THU]: the “Half-life of THU” value was in the range of 3.38 to 4.13 h.
